{"source": "paper PMC11881554", "about": "“Restoring cefepime activity against multidrug-resistant KPC-producing Klebsiella pneumoniae by combination with boronic acid inhibitors, MB076 and S02030” (Antimicrobial Agents and Chemotherapy, 2025)", "origin": "cited, not measured here", "key": {"[1]": {"set-up": "method as in PMID 32253209", "settings": "neutropenic animals; cited from earlier work"}, "[2]": {"settings": "healthy adults, cited from earlier work"}}, "note": "Read-outs that look alike come from different tables or passages of the source."}
{"smiles": "CO/N=C(\\C(=O)N[C@@H]1C(=O)N2C(C(=O)[O-])=C(C[N+]3(C)CCCC3)CS[C@H]12)c1csc(N)n1", "note": "[FEP, cefepime]", "values": [{"measurement": "AUCELF:AUCplasma ratio", "setting": "[1]", "result": 73.4, "unit": "%"}, {"measurement": "ratio of ELF to total plasma concentration", "setting": "[2]; at 0.5 h", "result": "0.31 ± 0.07"}, {"measurement": "ratio of ELF to total plasma concentration", "setting": "[2]; at 10 h", "result": "0.74 ± 0.42"}]}
